From article PMC8049364, “Quantification of Macrophage-Driven Inflammation During Myocardial Infarction with ^18F-LW223, a Novel TSPO Radiotracer with Binding Independent of the rs6971 Human Polymorphism” (Journal of Nuclear Medicine, 2021) come the findings set out here.

The chains behind the UniProt entries cited, without tags or fusion partners. Residues count along the entry.
UniProt P30536, whole entry: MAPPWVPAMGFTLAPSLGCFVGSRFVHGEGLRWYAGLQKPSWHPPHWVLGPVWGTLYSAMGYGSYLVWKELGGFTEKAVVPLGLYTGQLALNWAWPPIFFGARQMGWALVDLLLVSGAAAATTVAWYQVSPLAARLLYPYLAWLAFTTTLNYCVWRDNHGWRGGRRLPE
UniProt P30536, 2-169: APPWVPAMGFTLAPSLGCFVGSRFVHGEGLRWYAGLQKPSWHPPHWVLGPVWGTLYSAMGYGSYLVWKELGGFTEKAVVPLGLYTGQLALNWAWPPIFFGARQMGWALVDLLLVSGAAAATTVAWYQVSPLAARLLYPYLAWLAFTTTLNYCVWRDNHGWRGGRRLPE

A word on the Kd: it is the concentration at which binding is half-saturated. Low readings indicate tighter binding, high ones weaker binding. The term Ki denotes a dissociation constant, usually derived from enzyme kinetics or from competition with a known ligand.

In assay [1] the target is T1, TSPO (Homo sapiens, UniProt P30536). Kind of assay: biochemical. On the procedure:
(§1) All studies using human tissue were conducted in accordance with the National Health Service Research Ethics Committee South East Scotland (Edinburgh Brain and Tissue Bank, 16/ES/0084). Supplemental Table 1 contains the Brain Bank Network reference number for all tissues used from the Edinburgh Brain and Tissue Bank. […] Samples were homogenized in ×10 w/v buffer (50 mM Tris-Base, pH 7.4, 4°C) before centrifugation (32,000g, 10 min, 4°C). Tissue pellets were then resuspended in ×10 w/v buffer and centrifuged again before resuspending in 2 mL of buffer. Samples were assessed for protein concentration using the Bio-Rad protein assay, aliquoted, and stored at −80°C until use. The competition binding assay protocol was adjusted from a previously reported protocol ([16]), as detailed within the supplemental materials.
(§2) In Vitro Human Competition Binding Assays
(§3) Briefly, 250 µg protein/mL in 200 µl of buffer was added to 100 µl of 1 nM 3H- […]
(§4) Aldrich, USA), PBR28 (ABX, Germany), AB5186 or LW223 at 14 different concentrations (0.001-3000 nM) for 90 min at 4 °C. […] Filter paper was then removed, placed into 2.5 mL of Optiphase HiSafe 3 (Perkin Elmer, USA) and counted 48 hours later on a Hidex 300 SL (Hidex, Finland). […]
saturation binding results, Sup.Fig.2) was used to determine the best fitting model and to calculate LAB:HAB ratios. Affinity values (Ki) were calculated by fitting individual tissue […]

The target of assay [2] is T1, TSPO. Kind of assay: In vitro competition binding assay with ^3H-PK11195 in human brain homogenates (HAB, MAB, LAB). The protocol: as §1, §2, §3, §4
(§5) saturation binding results, Sup.Fig.2) was used to determine the best fitting model and to calculate LAB:HAB ratios. Affinity values (Ki) were calculated by fitting individual tissue

The target in assay [3] is T1, TSPO. Kind of assay: In vitro competition binding assay with ^3H-PK11195 in human heart homogenates (HAB, MAB, LAB). Particulars: read-out: mean Ki. On the procedure:
as §1, §2, §3, §4, §5

Take `CCC(C)N(C)C(=O)c1cc2ccccc2c(-c2ccccc2Cl)n1` (stereo not drawn) [PK11195, 1-(2-chlorophenyl)-N-methyl-N-(1-methylpropyl)-3-isoquinolinecarboxamide, reference compound]: at TSPO [1], the Kd came to 14 nM. Also, the “Effect of rs6971 genetic polymorphism on Ki” value on TSPO [2] was “unaffected”. In addition, at TSPO [3], the Ki was found to be 1.7 nM.
